Key:
[1] = target: beta-catenin/TCF4 interaction (Homo sapiens, UniProt P35222); test: cell-based; parameters: host or cells: HEK293; details: NanoBRET Abs IC50 (uM)
[2] = target: T1, full-length B-Catenin (Uniprot ID P35222) (Homo sapiens, UniProt P35222); test: biochemical; assay type: binding; details: beta-Catenin FP IC50 (nM), competition fluorescence polarization
T1 construct: 10 nM full-length B-Catenin (Uniprot ID P35222)

Protein sequences, listed by entry. Tags and fused reporters are not part of them.
UniProt P35222, whole entry: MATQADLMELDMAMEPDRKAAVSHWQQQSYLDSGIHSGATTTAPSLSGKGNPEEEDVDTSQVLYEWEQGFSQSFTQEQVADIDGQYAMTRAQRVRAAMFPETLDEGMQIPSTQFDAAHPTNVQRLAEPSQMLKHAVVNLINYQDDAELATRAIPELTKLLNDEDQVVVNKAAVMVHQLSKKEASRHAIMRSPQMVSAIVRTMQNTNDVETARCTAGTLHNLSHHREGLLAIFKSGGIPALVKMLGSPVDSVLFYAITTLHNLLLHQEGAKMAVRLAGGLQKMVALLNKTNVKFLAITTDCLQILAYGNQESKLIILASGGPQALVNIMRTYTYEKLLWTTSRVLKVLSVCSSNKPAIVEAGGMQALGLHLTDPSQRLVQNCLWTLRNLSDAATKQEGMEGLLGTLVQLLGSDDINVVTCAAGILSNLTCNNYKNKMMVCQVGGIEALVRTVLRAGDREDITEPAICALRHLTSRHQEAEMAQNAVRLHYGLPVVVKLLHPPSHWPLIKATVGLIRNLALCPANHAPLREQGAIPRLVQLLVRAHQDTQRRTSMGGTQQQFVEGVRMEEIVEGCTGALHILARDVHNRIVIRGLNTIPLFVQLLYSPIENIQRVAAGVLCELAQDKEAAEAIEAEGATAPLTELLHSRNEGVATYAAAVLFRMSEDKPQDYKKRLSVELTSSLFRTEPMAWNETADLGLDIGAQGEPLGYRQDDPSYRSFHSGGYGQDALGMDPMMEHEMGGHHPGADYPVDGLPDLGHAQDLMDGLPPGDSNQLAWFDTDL

| SMILES | IC50 [1] [µM] | IC50 [2] [nM] | IC50 ([1]; absolute IC50) [µM] |
| --- | --- | --- | --- |
| CC(=O)N1CCC[C@]12CC=CCCCC1(CCCC=CCCCOC(=O)N3CC[C@@]4(C3)NC(=O)[C@H](CCCCNC(=O)CC[C@@H](C(=O)N[C@@H](C)C(N)=O)NC(=O)[C@H](Cc3csc5ccccc35)NC(=O)[C@H](Cc3ccccc3C(F)(F)F)NC4=O)NC(=O)[C@H](Cc3ccccc3)NC(=O)[C@H](C)NC(=O)[C@H](Cc3ccccc3)NC(=O)[C@H](CN(CC(=O)O)CC(F)(F)F)NC(=O)[C@H](CC(=O)O)NC1=O)NC(=O)[C@H](CC(C)(C)C)NC(=O)[C@H](CC(=O)O)NC2=O (relative stereo) [I-123, Ac-PL3-Asp-Npg-B5-Asp-TfeGA-Phe-Ala-Phe-Lys*3-PyrS2-2F3MeF-BztA-GlnR*3-Ala-NH2] | > 10 | 50 to 200 |  |
| CC(=O)N1CCC[C@]12CC=CCCCC1(CCCC=CCCCOC(=O)N3CC[C@@]4(C3)NC(=O)[C@H](CCC(=O)N3CCC(CC3)C[C@@H](C(=O)N[C@@H](C)C(N)=O)NC(=O)[C@H](Cc3csc5ccccc35)NC(=O)[C@H](Cc3ccccc3C(F)(F)F)NC4=O)NC(=O)[C@H](Cc3ccccc3)NC(=O)[C@H](C)NC(=O)[C@H](C)NC(=O)[C@H](Cc3cccc(C(=O)O)c3)NC(=O)[C@H](CC(=O)O)NC1=O)NC(=O)[C@H](CC(C)(C)C)NC(=O)[C@H](CC(=O)O)NC2=O (relative stereo) [I-259, Ac-PL3-Asp-Npg-B5-Asp-3COOHF-Ala-Ala-Phe-GlnR*3-PyrS2-2F3MeF-BztA-4PipA*3-Ala-NH2] | 3 to 10 | 50 to 200 |  |
| CC(=O)N1CCC[C@]12CC=CCCCC1(CCCC=CCCCOC(=O)N3CC[C@@]4(C3)NC(=O)[C@H](CCCCNC(=O)CC[C@@H](C(=O)N[C@@H](C)C(N)=O)NC(=O)[C@H](Cc3csc5ccccc35)NC(=O)[C@H](Cc3ccccc3C(F)(F)F)NC4=O)NC(=O)[C@H](Cc3ccccc3)NC(=O)[C@H](C)NC(=O)C(C)(C)NC(=O)[C@H](CO)NC(=O)[C@H](CC(=O)O)NC1=O)NC(=O)[C@H](CC(C)(C)C)NC(=O)[C@H](CC(=O)O)NC2=O (relative stereo) [I-210, Ac-PL3-Asp-Npg-B5-Asp-Ser-Aib-Ala-Phe-Lys*3-PyrS2-2F3MeF-BztA-GlnR*3-Ala-NH2] | 3 to 10 | 50 to 200 |  |
| CC(=O)N1CCC[C@]12CC=CCCCC1(CCCC=CCCCOC(=O)N3CC[C@@]4(C3)NC(=O)[C@H](CCCCNC(=O)CC[C@@H](C(=O)N[C@@H](C)C(N)=O)NC(=O)[C@H](Cc3csc5ccccc35)NC(=O)[C@H](Cc3ccccc3C(F)(F)F)NC4=O)NC(=O)[C@H](Cc3ccccc3)NC(=O)[C@H](C)NC(=O)C(C)(C)NC(=O)[C@H](Cc3ccc(O)cc3)NC(=O)[C@H](CC(=O)O)NC1=O)NC(=O)[C@H](CC(C)(C)C)NC(=O)[C@H](CC(=O)O)NC2=O (relative stereo) [I-203, Ac-PL3-Asp-Npg-B5-Asp-Tyr-Aib-Ala-Phe-Lys*3-PyrS2-2F3MeF-BztA-GlnR*3-Ala-NH2] | > 10 | > 1000 |  |
| CC(=O)N1CCC[C@]12CC=CCCCC1(CCCC=CCCCOC(=O)N3CC[C@@]4(C3)NC(=O)[C@H](CCCCNC(=O)CC[C@@H](C(=O)N[C@@H](C)C(N)=O)NC(=O)[C@H](Cc3csc5ccccc35)NC(=O)[C@H](Cc3ccsc3)NC4=O)NC(=O)[C@H](Cc3ccccc3)NC(=O)[C@H](C)NC(=O)C(C)(C)NC(=O)[C@H](Cc3cccc(C(=O)O)c3)NC(=O)[C@H](CC(=O)O)NC1=O)NC(=O)[C@H](CC(C)(C)C)NC(=O)[C@H](CCCC(=O)O)NC2=O (single isomer, unassigned) [I-545, Ac-PL3-Aad-Npg-B5-Asp-3COOHF-Aib-Ala-Phe-Lys*3-PyrS2-3Thi-BztA-GlnR*3-Ala-NH2] |  | 200 to 750 | > 10 |
| CC(=O)N1CCC[C@]12CC=CCCCC1(CCCC=CCCCOC(=O)N3CC[C@@]4(C3)NC(=O)[C@H](CCCCn3cc(nn3)C[C@@H](C(=O)N[C@H](C(N)=O)C(C)C)NC(=O)[C@H](Cc3csc5ccccc35)NC(=O)[C@H](Cc3ccsc3)NC4=O)NC(=O)[C@H](Cc3ccccc3)NC(=O)[C@H](C)NC(=O)C(C)(C)NC(=O)[C@H](Cc3cccc(C(=O)O)c3)NC(=O)[C@H](CC(=O)O)NC1=O)NC(=O)[C@H](CC(C)(C)C)NC(=O)[C@H](CC(=O)O)NC2=O (stereo partly drawn) [I-413, Ac-PL3-Asp-Npg-B5-Asp-3COOHF-Aib-Ala-Phe-TriAzLys*3-PyrS2-3Thi-BztA-sAla*3-Val-NH2] |  | < 50 | < 1.5 |

The remaining lines, values ahead:

| IC50 [1] [µM] | IC50 [2] [nM] | IC50 ([1]; absolute IC50) [µM] | SMILES |
| --- | --- | --- | --- |
|  | < 50 | 1.5 to 3 | CC(=O)N1CCC[C@]12CC=CCCCC1(CCCC=CCCCOC(=O)N3CC[C@@]4(C3)NC(=O)[C@H](CCCCNC(=O)CC[C@@H](C(=O)N[C@@H](C)C(N)=O)NC(=O)[C@H](Cc3csc5ccccc35)NC(=O)[C@H](Cc3ccsc3)NC4=O)NC(=O)[C@H](Cc3ccccc3)NC(=O)[C@H](C)NC(=O)[C@H](CCC(=O)N(C)C)NC(=O)[C@H](Cc3cccc(C(=O)O)c3)NC(=O)[C@H](CC(=O)O)NC1=O)NC(=O)[C@H](CC(C)(C)C)NC(=O)[C@H](CC(=O)O)NC2=O (relative stereo) [I-379, Ac-PL3-Asp-Npg-B5-Asp-3COOHF-Me2Gln-Ala-Phe-Lys*3-PyrS2-3Thi-BztA-GlnR*3-Ala-NH2] |
| 3 to 10 | < 50 |  | CC(=O)N1CCC[C@]12CC=CCCCC1(CCCC=CCCCOC(=O)N3CC[C@@]4(C3)NC(=O)[C@H](CCCCNC(=O)CC[C@@H](C(=O)N[C@@H](C)C(N)=O)NC(=O)[C@H](Cc3csc5ccccc35)NC(=O)[C@H](Cc3ccco3)NC4=O)NC(=O)[C@H](Cc3ccccc3)NC(=O)[C@H](C)NC(=O)C(C)(C)NC(=O)[C@H](Cc3cccc(C(=O)O)c3)NC(=O)[C@H](CC(=O)O)NC1=O)NC(=O)[C@H](CC(C)(C)C)NC(=O)[C@H](CC(=O)O)NC2=O (relative stereo) [I-292, Ac-PL3-Asp-Npg-B5-Asp-3COOHF-Aib-Ala-Phe-Lys*3-PyrS2-2FurA-BztA-GlnR*3-Ala-NH2] |
|  | < 50 | 3 to 10 | CC(=O)N1CCC[C@]12CC=CCCCC1(CCCC=CCCCOC(=O)N3CC[C@@]4(C3)NC(=O)[C@H](CCCn3cc(nn3)CC[C@@H](C(=O)N[C@@H](C)C(N)=O)NC(=O)[C@H](Cc3csc5ccccc35)NC(=O)[C@H](Cc3ccccc3)NC4=O)NC(=O)[C@H](Cc3ccccc3)NC(=O)[C@H](C)NC(=O)C(C)(C)NC(=O)[C@H](Cc3cccc(C(=O)O)c3)NC(=O)[C@H](CC(=O)O)NC1=O)NC(=O)[C@H](CC(C)(C)C)NC(=O)[C@H](CC(=O)O)NC2=O (stereo partly drawn) [I-424, Ac-PL3-Asp-Npg-B5-Asp-3COOHF-Aib-Ala-Phe-TriAzOrn*3-PyrS2-Phe-BztA-sAbu*3-Ala-NH2] |
|  | < 50 | 3 to 10 | CC(=O)N1CCC[C@]12CC=CCCCC1(CCCC=CCCCOC(=O)N3CC[C@@]4(C3)NC(=O)[C@H](CCCCNC(=O)CC[C@@H](C(=O)N[C@@H](C)C(N)=O)NC(=O)[C@H](Cc3cccc(Br)c3)NC(=O)[C@H](Cc3ccsc3)NC4=O)NC(=O)[C@H](Cc3ccccc3)NC(=O)[C@H](C)NC(=O)C(C)(C)NC(=O)[C@H](Cc3cccc(C(=O)O)c3)NC(=O)[C@H](CC(=O)O)NC1=O)NC(=O)[C@H](CC(C)(C)C)NC(=O)[C@H](CC(=O)O)NC2=O (relative stereo) [I-332, Ac-PL3-Asp-Npg-B5-Asp-3COOHF-Aib-Ala-Phe-Lys*3-PyrS2-3Thi-3BrF-GlnR*3-Ala-NH2] |
|  | < 50 | < 1.5 | CC(=O)N1CCC[C@]12CC=CCCCC1(CCCC=CCCCOC(=O)N3CC[C@@]4(C3)NC(=O)[C@H](CCCCNC(=O)CC[C@@H](C(=O)N[C@@H](C)C(N)=O)NC(=O)[C@H](Cc3ccc(Cl)c(Cl)c3)NC(=O)[C@H](Cc3ccccc3)NC4=O)NC(=O)[C@H](Cc3ccccc3)NC(=O)[C@H](C)NC(=O)C(C)(C)NC(=O)[C@H](Cc3cccc(C(=O)O)c3)NC(=O)[C@H](CC(=O)O)NC1=O)NC(=O)[C@H](CC(C)(C)C)NC(=O)[C@H](CC(=O)O)NC2=O (relative stereo) [I-329, Ac-PL3-Asp-Npg-B5-Asp-3COOHF-Aib-Ala-Phe-Lys*3-PyrS2-Phe-34ClF-GlnR*3-Ala-NH2] |
|  | < 50 | < 1.5 | CC(=O)N1CCC[C@]12CC=CCCCC1(CCCC=CCCCOC(=O)N3CC[C@@]4(C3)NC(=O)[C@H](CCCCNC(=O)CC[C@@H](C(=O)N[C@H](C(=O)N[C@@H](CO)C(N)=O)C(C)C)NC(=O)[C@H](Cc3csc5ccccc35)NC(=O)[C@H](Cc3ccsc3)NC4=O)NC(=O)[C@H](Cc3ccccc3)NC(=O)[C@H](C)NC(=O)C(C)(C)NC(=O)[C@H](Cc3cccc(C(=O)O)c3)NC(=O)[C@H](CC(=O)O)NC1=O)NC(=O)[C@H](CC(C)(C)C)NC(=O)[C@H](CC(=O)O)NC2=O (relative stereo) [I-399, Ac-PL3-Asp-Npg-B5-Asp-3COOHF-Aib-Ala-Phe-Lys*3-PyrS2-3Thi-BztA-GlnR*3-Val-Ser-NH2] |
|  | < 50 | 3 to 10 | CC(=O)N1CCC[C@]12CC=CCCCC1(CCCC=CCCCOC(=O)N3CC[C@@]4(C3)NC(=O)[C@H](CCCCNC(=O)CC[C@@H](C(=O)N[C@@H](C)C(N)=O)NC(=O)[C@H](Cc3ccc5ccccc5c3)NC(=O)[C@H](Cc3ccsc3)NC4=O)NC(=O)[C@H](Cc3ccccc3)NC(=O)[C@H](C)NC(=O)C(C)(C)NC(=O)[C@H](Cc3cccc(C(=O)O)c3)NC(=O)[C@H](CC(=O)O)NC1=O)NC(=O)[C@H](CC(C)(C)C)NC(=O)[C@H](CC(=O)O)NC2=O (single isomer, unassigned) [I-485, Ac-PL3-Asp-Npg-B5-Asp-3COOHF-Aib-Ala-Phe-Lys*3-PyrS2-3Thi-2NapA-GlnR*3-Ala-NH2] |
| 1.5 to 3 | < 50 |  | CC(=O)N1CCC[C@]12CC=CCCCC1(CCCC=CCCCOC(=O)N3CC[C@@]4(C3)NC(=O)[C@H](CCCCNC(=O)CC[C@@H](C(=O)N[C@@H](C)C(N)=O)NC(=O)[C@H](Cc3csc5ccccc35)NC(=O)[C@H](Cc3ccccc3C#N)NC4=O)NC(=O)[C@H](Cc3ccccc3)NC(=O)[C@H](C)NC(=O)C(C)(C)NC(=O)[C@H](Cc3cccc(C(=O)O)c3)NC(=O)[C@H](CC(=O)O)NC1=O)NC(=O)[C@H](CC(C)(C)C)NC(=O)[C@H](CC(=O)O)NC2=O (relative stereo) [I-297, Ac-PL3-Asp-Npg-B5-Asp-3COOHF-Aib-Ala-Phe-Lys*3-PyrS2-2CNF-BztA-GlnR*3-Ala-NH2] |

Reference: patent US20240360179A1, “STAPLED PEPTIDES AND METHODS THEREOF” (FOG PHARMACEUTICALS, INC., priority 2021, published 2024)
